# Earlier results in article PMC10088252.
# System: NSCLC with MET exon 14 skipping mutation
# Set-up: method as in PMID 32469185
# Details: cited from earlier work
# [1] = NSCLC patients with MET exon 14 skipping mutation
smiles,measurement,setting,value
CN1CCC(COc2cnc(-c3cccc(Cn4nc(-c5cccc(C#N)c5)ccc4=O)c3)nc2)CC1 [tepotinib],ORR,11 patients with MET exon 14 skipping mutation and brain metastases,55%
same,ORR,[1],46%
same,median duration of response (DoR),[1],11.1 months
same,grade ≥ 3 TEAE peripheral edema,,7%
same,"grade ≥ 3 TEAEs, patients",,28%
same,patients who discontinued treatment due to TRAEs,,11%
same,ORR,"investigator assessed, previously treated or untreated",56%

# Like-named read-outs stand apart in the source and are kept apart here.
